Literature values, collected in article PMC3395807 (Journal of Medicinal Chemistry, 2012).

Tested on: DENV
Settings: cited from earlier work

With `CCC(O)(CC)CCCCCCN1C[C@H](O)[C@@H](O)[C@H](O)[C@H]1CO` [Compound 7, (2R,3R,4R,5S)-1-(7-Ethyl-7-hydroxynonyl)-2-(hydroxymethyl)piperidine-3,4,5-triol] as the compound, how does the “survival in mouse models of lethal dengue virus infection” value read?
The value was “protection of mice from death”.
